# Binding of CDR-mutated scFvs to a peptide of the spike HR2 region

Source: Li et al. 2023 (doi:10.1038/s41467-023-39022-2), MIT Lincoln Laboratory and A-Alpha Bio; data file from the FLAb repository.

Antigen: PDVDLGDISGINAS, a 14-residue peptide of the SARS-CoV-2 spike HR2 region.

Parent: Ab-14, a human scFv built as VH, three GGGGS repeats, VL. Only the CDRs of the heavy chain vary.
VH: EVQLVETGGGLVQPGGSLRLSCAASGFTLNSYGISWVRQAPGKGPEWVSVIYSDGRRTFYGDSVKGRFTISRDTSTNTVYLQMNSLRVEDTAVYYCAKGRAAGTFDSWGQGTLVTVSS
VL: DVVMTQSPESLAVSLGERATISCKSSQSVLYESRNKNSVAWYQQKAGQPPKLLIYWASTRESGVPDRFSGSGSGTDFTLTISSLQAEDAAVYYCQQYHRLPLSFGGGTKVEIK

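The starting antibody came from a phage panning campaign against this peptide. These sequences belong to a second round, designed from the earlier measurements on random variants of the parent. Their group label is 14H_GP_Gen (GP: Gaussian process model; Gen: genetic algorithm; a sequence that several methods proposed may carry one label only). The scFvs were displayed on barcoded MATa yeast, the peptide on MATalpha yeast. The frequency of each diploid, read from paired DNA barcodes, reflects how well the two displayed proteins bind. A regression on co-assayed BCL2-family reference pairs converts the normalised counts of each replicate to an apparent Kd. Mating was done six times.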

Positions count from residue 1 of the parent VH; T28D puts D in place of T. Affinities are written as log10 Kd with Kd in nM; a lower number is a better binder. Replicates are averaged; those with no signal do not enter the mean. Where no diploid with the target was found in that replicate, the entry reads "ND": below detection, most likely a poor binder, though not proof of it.

| changes | log10 Kd, replicates | mean, log10 nM | control signals |
|---|---|---|---|
| T28D/S63R/A101Q | 0.89 0.85 0.24 0.76 0.55 0.84 | 0.69 | 0 of 18 |
| T28E/R100Q/A101T/S107T | 1.24 1.60 0.52 1.10 1.01 0.67 | 1.02 | 0 of 18 |
| T28W/S31E/G61I/R100K | ND ND ND 1.36 ND ND | 1.36 | 0 of 18 |
| T28Q/G61A/R100K/A101V | 0.39 -0.18 -0.15 -0.03 0.07 0.12 | 0.03 | 0 of 18 |
| G26P/T28D/G61V/A101T | 1.13 ND ND 2.05 ND 1.96 | 1.72 | 0 of 18 |
| T28N/G61H/R100Q/A101T | 0.21 0.19 0.28 0.28 0.18 0.25 | 0.23 | 1 of 18 (2.85) |
| G26K/T28D/G61Q/A101Q | 0.13 -0.58 -0.18 0.00 0.42 0.03 | -0.03 | 1 of 18 (0.66) |
| T28D/G61V/R100Q/S107Q | 0.55 1.17 ND 1.10 ND ND | 0.94 | 0 of 18 |
| T28S/S53A/S63Q/A101T | 0.59 0.25 -0.24 -0.16 0.37 0.86 | 0.28 | 0 of 18 |
| R100K/A101H/S107T | 1.39 ND 2.09 ND ND ND | 1.74 | 1 of 18 (1.35) |
| T28H/R100M/A101T | 1.49 1.82 1.33 3.35 1.73 1.18 | 1.82 | 0 of 18 |
| G26Y/T28D/G61I/R100N | ND ND ND ND ND ND | ND | 0 of 18 |
| T28A/S31E/A101T/S107T | -0.17 0.82 -0.38 -0.57 -0.17 -0.21 | -0.11 | 0 of 18 |
| T28D/G61S/R100S | 0.31 0.28 0.54 0.00 -0.09 0.15 | 0.20 | 1 of 18 (1.79) |
| T28W/S31E/A101N/S107T | 0.21 0.17 ND ND ND ND | 0.19 | 0 of 18 |
| G61I/R100Q/S107V | ND ND ND -1.13 ND ND | -1.13 | 0 of 18 |
| T28D/R100I/A101T | ND ND ND ND ND ND | ND | 0 of 18 |
| T28E/R56M/G61S/A101T | 1.07 0.99 0.99 2.43 0.38 1.23 | 1.18 | 0 of 18 |
| N30E/R100Q/A101E/S107T | 1.22 0.42 0.66 0.36 0.67 1.17 | 0.75 | 0 of 18 |
| G26K/T28D/R100K/A101T | 0.06 ND 0.73 0.39 1.29 1.02 | 0.70 | 0 of 18 |
| T28D/G61Q/R100K/S107A | 0.69 0.32 -0.02 0.06 0.27 0.50 | 0.30 | 0 of 18 |
| T28G/R100Q/A101E | ND 1.12 0.63 -0.20 1.39 0.80 | 0.75 | 0 of 18 |
| N30K/S53A/R56K | 1.23 0.45 0.40 0.60 0.89 0.95 | 0.75 | 1 of 18 (2.57) |
| T28E/S53A/S107M | ND -0.55 0.00 ND ND 0.45 | -0.04 | 0 of 18 |
| T28S/R100H/S107Q | 1.49 0.78 1.18 0.71 1.03 1.17 | 1.06 | 2 of 18 (2.57) |
| T28Q/G61H/A101T | ND 0.13 0.52 ND 0.83 0.89 | 0.59 | 0 of 18 |
| T28D/G61Q/S63R/R100N | ND ND ND 1.08 -0.46 0.72 | 0.45 | 0 of 18 |
| T28D/G61Q/S63K/R100Q | 0.04 0.66 -0.39 -0.02 -0.11 -0.32 | -0.02 | 0 of 18 |
| T28W/S31E/A101T/S107A | 1.59 1.19 1.25 1.38 1.25 1.04 | 1.28 | 1 of 18 (1.57) |
| G26H/T28D/G61A/A101E | ND ND ND ND ND ND | ND | 0 of 18 |
| T28N/G61A/S63D/A101N | 0.19 0.01 -0.31 -0.26 0.55 0.70 | 0.15 | 0 of 18 |
| T28D/R100V/A101T | -0.38 -0.49 -0.60 -0.40 -0.46 -0.05 | -0.40 | 0 of 18 |
| T28E/S31T/G61S/R100E | 1.21 0.04 0.59 0.45 0.24 0.45 | 0.50 | 0 of 18 |
| T28D/R100N/S107N | 0.68 0.59 0.47 0.70 0.45 0.82 | 0.62 | 2 of 18 (2.36) |
| T28D/G61I/R100W | 0.88 0.86 0.75 0.81 0.79 0.84 | 0.82 | 2 of 18 (2.85) |
| T28E/S31E/R100E/S107T | -0.07 0.88 -0.07 1.66 0.55 0.96 | 0.65 | 0 of 18 |
| T28D/S31E/R100E/S107K | ND ND ND ND ND 2.94 | 2.94 | 0 of 18 |
| T28N/G61A/S63R/R100E | ND ND ND ND ND ND | ND | 1 of 18 (1.31) |
| T28D/R56K/A101T/S107D | -0.03 0.38 -0.07 -0.11 -0.51 -0.62 | -0.16 | 0 of 18 |
| T28W/S31E/A101Q/S107A | 1.91 1.44 1.29 1.53 0.91 1.39 | 1.41 | 0 of 18 |
| G26K/T28E/S31E/A101T | 1.93 1.10 1.82 0.98 ND 2.64 | 1.69 | 0 of 18 |
| T28E/S31M/R56K/A101T | 0.95 0.79 0.22 0.29 0.67 1.62 | 0.76 | 0 of 18 |
| T28S/G61I/R100Q/S107Q | 0.83 1.72 0.86 1.32 1.35 1.51 | 1.27 | 0 of 18 |
| T28N/G61I/A101Q/S107T | 1.91 1.47 0.66 1.09 1.06 2.33 | 1.42 | 0 of 18 |
| T28Y/S31E/A101N | ND ND 0.37 ND ND ND | 0.37 | 0 of 18 |

A sequence measured in both rounds can read differently, since the two assays cover different ranges. The parent sequence was in this pool as ten entries: three were never detected, three once, and four in most replicates, with averages from 0.34 to 2.37. The authors' rule: three or more of the six replicates give a measured affinity, fewer mean a poor binder. Three control strains display no target. For all heavy chain designs, 1% of the pairings with them gave a signal, with a median of 2.08 and one signal in twenty below 0.84, so weak values seen in few replicates may be background. For each scFv, signals with the empty controls are counted beside the result, with their mean in brackets.